# Curated experimental data: vapor pressure values

Vapor pressures (log10 mmHg) refer to near room temperature, 15 to 30 °C; higher is more volatile.

structure (SMILES)	vapor pressure (log10 mmHg)
CC(C)Nc1ccccc1	-1.523
Cl.Cl.N[C@@H](CSSC[C@H](N)C(=O)O)C(=O)O	-11.54
CCCN(CCc1cccs1)C1CCc2c(O)cccc2C1.Cl (configuration not stated)	-9.467
CCCCC(CC)COC(=O)c1ccc(N(C)C)cc1 (configuration not stated)	-5.426
O=C(O)c1cccc([N+](=O)[O-])c1	-4.435
COc1ccc(NCCO)cc1N.O=S(=O)(O)O	-8.664
Cc1ccc(S(=O)(=O)N=C=O)cc1	-3.727
COCC(F)(F)C(F)(F)F	2.484
CCOC(=O)c1cccnc1	-1.443
CCCCOC(=O)c1ccc(O)cc1	-4.625
CCN1CCNCC1	0.309
Clc1ccc(CSc2ccc(Cl)cc2)cc1	-4.917
CC1CC(O)CC(C)(C)C1 (configuration not stated)	-0.523
CCCCCCCCOC(=O)[C@@H](C)Oc1ccc(Cl)cc1C	-4.858
NCCCC(O)(P(=O)(O)O)P(=O)(O)O.O	-8.134
C=C(C)OC(C)=O	1.766
Clc1cc(Cl)c(Oc2c(Cl)cc(Cl)c(Cl)c2Cl)c(Cl)c1Cl	-6.796
COCCC(=O)OC	0.971
Clc1cc(Cl)c(-c2c(Cl)ccc(Cl)c2Cl)c(Cl)c1Cl	-4.943
Brc1cnc2ccccc2c1	-2.833
CC(CC(=O)Cl)CC(C)(C)C (configuration not stated)	-0.292
O=C(c1ccc2c(c1)C(=O)OC2=O)c1ccc2c(c1)C(=O)OC2=O	-12.31
CC=C(C)Br	1.755
CC1(C)CCC[C@]2(C)[C@H]3CC(=O)O[C@]3(C)CC[C@@H]12	-7.881
CC(O)CN(C)C (configuration not stated)	1.009
CC=CCBr	1.905
Clc1cc(Cl)c(-c2c(Cl)c(Cl)c(Cl)c(Cl)c2Cl)c(Cl)c1Cl	-6.015
FC(F)(F)C(F)(F)C(F)(C(F)(F)F)C(F)(F)C(F)(F)F	2.32
C=Cc1ncnc(Cl)c1F	0.003
C#CCCl	2.261
CC(=O)OC[C@H]1O[C@H](OC(C)=O)[C@H](OC(C)=O)[C@@H](OC(C)=O)[C@@H]1OC(C)=O	-7.477
CCCCCCCCCCCC(=O)N(CCCC)CCCC	-6.62
C=CC(=O)NC(C)(C)CS(=O)(=O)[O-].[Na+]	-10.26
C/C=C/C(C)C.C=C	2.316
CCCCCCC(C)Nc1ccc(Nc2ccccc2)cc1 (configuration not stated)	-6.302
Cc1nc(C)c(Cl)c(O)c1Cl	-3.183
CCC=C(C)C=O	0.827
Cc1cc(C)nc(N)n1	-1.699
Cc1cscn1	0.934
C#CC(C)O (racemic)	0.916
C=C(C#N)C(=O)OCCOC	1.519
CN1CCOCC1	1.235
O=C(OCC1CO1)c1ccc(C(=O)OCC2CO2)c(C(=O)OCC2CO2)c1 (configuration not stated)	-8.201
Clc1ccc(Cl)c(-c2c(Cl)cccc2Cl)c1Cl	-3.924
C=C(C)CCOC(C)=O	0.4
O=Cc1ccc(C=O)cc1	-2.595
CCCCC(CC)CN(CCC(=O)[O-])CCC(=O)O.[Na+] (configuration not stated)	-4.655
CCCCNCC	1.407

7 of these entries, quoted again:

structure (SMILES)	vapor pressure (log10 mmHg)
C=C(C)OC(C)=O	1.766
CC1(C)CCC[C@]2(C)[C@H]3CC(=O)O[C@]3(C)CC[C@@H]12	-7.881
CCCCCCC(C)Nc1ccc(Nc2ccccc2)cc1 (configuration not stated)	-6.302
Cc1cc(C)nc(N)n1	-1.699
NCCCC(O)(P(=O)(O)O)P(=O)(O)O.O	-8.134
Cc1ccc(S(=O)(=O)N=C=O)cc1	-3.727
Clc1ccc(Cl)c(-c2c(Cl)cccc2Cl)c1Cl	-3.924

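These are experimental values that the OPERA curators gathered from public databases to train and test their QSAR models. The files give a single number for a compound and property, which may rest on several reports. Method and conditions are not stated for these values. The measured form (salt, isomer or mixture) is not always the one drawn. Unmarked limits or estimates from the upstream databases cannot be ruled out.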

From the experimental data distributed with OPERA 2.9.